In general, Ki refers to a dissociation constant, usually derived from enzyme kinetics or from competition with a known ligand. Read a high Ki as lower affinity.

Protein sequences, listed by entry. Tags and fused reporters are not part of them. Lines headed by an entry give the natural chain unless they say otherwise; changes in a name come on top.
UniProt P56817: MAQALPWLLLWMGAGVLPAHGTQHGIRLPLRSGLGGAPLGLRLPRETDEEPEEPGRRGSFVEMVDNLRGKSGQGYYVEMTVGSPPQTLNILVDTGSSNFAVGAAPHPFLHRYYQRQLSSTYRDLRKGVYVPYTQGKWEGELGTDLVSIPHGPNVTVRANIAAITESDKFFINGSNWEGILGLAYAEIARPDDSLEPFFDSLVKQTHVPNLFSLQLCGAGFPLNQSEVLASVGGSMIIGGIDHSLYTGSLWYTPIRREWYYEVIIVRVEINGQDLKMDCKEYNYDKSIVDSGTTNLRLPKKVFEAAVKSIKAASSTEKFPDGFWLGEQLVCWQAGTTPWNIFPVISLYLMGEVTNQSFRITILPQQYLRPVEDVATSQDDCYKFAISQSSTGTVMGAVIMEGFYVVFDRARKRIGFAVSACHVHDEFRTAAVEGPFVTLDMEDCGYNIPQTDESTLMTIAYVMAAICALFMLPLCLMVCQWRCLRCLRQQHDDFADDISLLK

This note sets out measurements from ChEMBL document CHEMBL1144924, “Calculation of the binding affinity of beta-secretase inhibitors using the linear interaction energy method” (J Med Chem, 2003).

The target in the experiment is Beta-secretase 1 (Homo sapiens, UniProt P56817). Briefly: Binding affinity for human brain memapsin 2 beta-Secretase (BACE).

As for `CC(C)C[C@H](NC(=O)[C@@H](N)CCC(=O)O)C(=O)N[C@@H](CC(=O)O)C(=O)N[C@@H](CC(C)C)[C@@H](O)C[C@@H](C)C(=O)N[C@H](C(=O)N[C@@H](CCC(=O)O)C(=O)NC(Cc1ccccc1)C(=O)O)C(C)C` (stereo partly drawn), the Ki was found to be 0.32 nM.
`CSCCC(NC(=O)[C@@H](NC(=O)OC(C)(C)C)C(C)C)C(=O)N[C@@H](CC(C)C)C(O)CC(CC(C)C)C(=O)NC(C(=O)NCc1ccccc1)C(C)C` (stereo partly drawn) came in with a Ki of 10500 nM.
In the case of `CC(C)C[C@H](NC(=O)C(CCS(C)(=O)=O)NC(=O)[C@@H](NC(=O)OC(C)(C)C)C(C)C)C(O)CC(C)C(=O)NC(C(=O)NCc1ccccc1)C(C)C` (stereo partly drawn), the affinity, expressed as Ki, was 8 nM.
